# Test results: paper PMC7794379, “Thioesterase-mediated side chain transesterification generates potent Gq signaling inhibitor FR900359” (Nature Communications, 2021)
# Test system: HEK293 Gαq/Gα11-null cells (endogenous muscarinic M3 receptors)
# Format: cell-based, human
smiles,measurement,value
C[N+](C)(C)CCOC(N)=O [carbachol],DMR response in words,unresponsive
